# Experimental data published in patent publication US6531446B1, “Peptides having biological activity” (Korea Advanced Institute of Science and Technology, priority 1998, dated 2003).
# Assays:
# Format in all cases: cell-based
# Salmonella typhimurium = conditions: murium, 18 h
# Description: (§1) By using the peptides as in Example 1, the minimal inhibitory concentration of the peptides were determined against a variety of microorganisms. Bacteria and fungi were incubated overnight in Mller-Hinton and Saboraud media, respectively, at 37 and 30° C., respectively, and were inoculated in media for 2 hours to a midlogarithmic phase. After diluting the bacteria and fungi to 10^4-10^5 per 1 ml, they were inoculated into a 96-well plate containing serially diluted peptides and incubated for additional 18 hours. The minimal inhibitory concentration was determined at a concentration that inhibits the growth of the microorganisms by measuring the absorbance.
# Candida albicans = conditions: 18 h
# Description: as §1
# Bacillus subtilis = conditions: 18 h
# Description: as §1
# Cryptococcus neoformans = conditions: 18 h
# Description: as §1
# Streptococcus mutans = conditions: 18 h
# Description: as §1
# Saccharomyces cerevisiae = conditions: 18 h
# Description: as §1
# Staphylococcus aureus = conditions: 18 h
# Description: as §1
# Escherichia coli = conditions: 18 h
# Description: as §1
# Serratia sp. = conditions: 18 h
# Description: as §1
# Streptococcus pneumoniae = conditions: 18 h
# Description: as §1
SMILES,Minimal Inhibitory Concentrations (Salmonella typhimurium) [µg/mL],Minimal Inhibitory Concentrations (Candida albicans) [µg/mL],Minimal Inhibitory Concentrations (Bacillus subtilis) [µg/mL],Minimal Inhibitory Concentrations (Cryptococcus neoformans) [µg/mL],Minimal Inhibitory Concentrations (Streptococcus mutans) [µg/mL],Minimal Inhibitory Concentrations (Saccharomyces cerevisiae) [µg/mL],Minimal Inhibitory Concentrations (Staphylococcus aureus) [µg/mL],Minimal Inhibitory Concentrations (Escherichia coli) [µg/mL],Minimal Inhibitory Concentrations (Serratia sp.) [µg/mL],Minimal Inhibitory Concentrations (Streptococcus pneumoniae) [µg/mL]
CC(C)C[C@H](NC(=O)CNC(=O)[C@H](C)N)C(=O)N[C@@H](CCC(N)=O)C(=O)N[C@@H](Cc1ccccc1)C(=O)N1CCC[C@H]1C(=O)N[C@H](C(=O)NCC(=O)N[C@@H](CCCNC(=N)N)C(=O)N[C@H](C(=O)N[C@@H](Cc1c[nH]cn1)C(=O)N[C@@H](CCCNC(=N)N)C(=O)N[C@@H](CC(C)C)C(=O)N[C@@H](CC(C)C)C(=O)N[C@@H](CCCNC(=N)N)C(=O)N[C@@H](CCCCN)C(N)=O)C(C)C)C(C)C [Seq No. 2],4,8,4,8,4,8,8,2,2,4
CC(C)C[C@H](NC(=O)CN)C(=O)N[C@@H](CCC(N)=O)C(=O)N[C@@H](Cc1ccccc1)C(=O)N1CCC[C@H]1C(=O)N[C@H](C(=O)NCC(=O)N[C@@H](CCCNC(=N)N)C(=O)N[C@H](C(=O)N[C@@H](Cc1c[nH]cn1)C(=O)N[C@@H](CCCNC(=N)N)C(=O)N[C@@H](CC(C)C)C(=O)N[C@@H](CC(C)C)C(=O)N[C@@H](CCCNC(=N)N)C(=O)N[C@@H](CCCCN)C(N)=O)C(C)C)C(C)C [Seq No. 3],4,8,4,8,4,8,8,2,2,4
CC(C)C[C@H](NC(=O)[C@H](CC(C)C)NC(=O)[C@H](CCCNC(=N)N)NC(=O)[C@H](Cc1c[nH]cn1)NC(=O)[C@@H](NC(=O)[C@H](CCCNC(=N)N)NC(=O)CNC(=O)[C@@H](NC(=O)[C@@H]1CCCN1C(=O)[C@H](Cc1ccccc1)NC(=O)[C@H](CCC(N)=O)NC(=O)[C@@H](N)CC(C)C)C(C)C)C(C)C)C(=O)N[C@@H](CCCNC(=N)N)C(=O)N[C@@H](CCCCN)C(=O)O [Seq No. 4],18,36,8,62,8,36,18,8,4,18
CC(C)C[C@H](NC(=O)[C@H](CC(C)C)NC(=O)[C@H](CCCNC(=N)N)NC(=O)[C@H](Cc1c[nH]cn1)NC(=O)[C@@H](NC(=O)[C@H](CCCNC(=N)N)NC(=O)CNC(=O)[C@@H](NC(=O)[C@@H]1CCCN1C(=O)[C@H](Cc1ccccc1)NC(=O)[C@@H](N)CCC(N)=O)C(C)C)C(C)C)C(=O)N[C@@H](CCCNC(=N)N)C(=O)N[C@@H](CCCCN)C(=O)O [Seq No. 5],18,62,18,62,36,62,62,36,18,18
CC(C)C[C@H](NC(=O)[C@H](CC(C)C)NC(=O)[C@H](CCCNC(=N)N)NC(=O)[C@H](Cc1c[nH]cn1)NC(=O)[C@@H](NC(=O)[C@H](CCCNC(=N)N)NC(=O)CNC(=O)[C@@H](NC(=O)[C@@H]1CCCN1C(=O)[C@@H](N)Cc1ccccc1)C(C)C)C(C)C)C(=O)N[C@@H](CCCNC(=N)N)C(=O)N[C@@H](CCCCN)C(N)=O [Seq No. 6],64,32,32,>100,32,>100,32,32,16,32
CC(C)C[C@H](NC(=O)CNC(=O)[C@H](C)NC(=O)[C@@H](N)CCCNC(=N)N)C(=O)N[C@@H](CCC(N)=O)C(=O)N[C@@H](Cc1ccccc1)C(=O)N1CCC[C@H]1C(=O)N[C@H](C(=O)NCC(=O)N[C@@H](CCCNC(=N)N)C(=O)N[C@H](C(=O)N[C@@H](Cc1c[nH]cn1)C(=O)N[C@@H](CCCNC(=N)N)C(=O)N[C@@H](CC(C)C)C(=O)N[C@@H](CC(C)C)C(=O)N[C@@H](CCCNC(=N)N)C(=O)O)C(C)C)C(C)C [Seq No. 9],25,50,12,50,25,100,50,12,12,25
CC(C)C[C@H](NC(=O)[C@H](CC(C)C)NC(=O)[C@H](CCCNC(=N)N)NC(=O)[C@H](Cc1c[nH]cn1)NC(=O)[C@@H](NC(=O)[C@H](CCCNC(=N)N)NC(=O)CNC(=O)[C@@H](NC(=O)[C@@H]1CCCN1C(=O)[C@H](Cc1ccccc1)NC(=O)[C@H](CCC(N)=O)NC(=O)[C@H](CC(C)C)NC(=O)CNC(=O)[C@H](C)NC(=O)[C@@H](N)CCCNC(=N)N)C(C)C)C(C)C)C(N)=O [Seq No. 10],50,>200,50,100,50,>200,200,50,25,100
CC(C)C[C@H](NC(=O)[C@H](CCCNC(=N)N)NC(=O)[C@H](Cc1c[nH]cn1)NC(=O)[C@@H](NC(=O)[C@H](CCCNC(=N)N)NC(=O)CNC(=O)[C@@H](NC(=O)[C@@H]1CCCN1C(=O)[C@H](Cc1ccccc1)NC(=O)[C@H](CCC(N)=O)NC(=O)[C@H](CC(C)C)NC(=O)CNC(=O)[C@H](C)NC(=O)[C@@H](N)CCCNC(=N)N)C(C)C)C(C)C)C(N)=O [Seq No. 11],200,>200,100,200,100,>200,200,200,100,100
